Source: US10112926B2 (priority 2014, dated 2018)
Structures can show the parent of a compound that is named as a salt.

Amino acid sequences for entries named in this document (tags omitted). A change or cut given only in a name is not applied to a line headed by its entry.
UniProt Q8NEB9, whole entry: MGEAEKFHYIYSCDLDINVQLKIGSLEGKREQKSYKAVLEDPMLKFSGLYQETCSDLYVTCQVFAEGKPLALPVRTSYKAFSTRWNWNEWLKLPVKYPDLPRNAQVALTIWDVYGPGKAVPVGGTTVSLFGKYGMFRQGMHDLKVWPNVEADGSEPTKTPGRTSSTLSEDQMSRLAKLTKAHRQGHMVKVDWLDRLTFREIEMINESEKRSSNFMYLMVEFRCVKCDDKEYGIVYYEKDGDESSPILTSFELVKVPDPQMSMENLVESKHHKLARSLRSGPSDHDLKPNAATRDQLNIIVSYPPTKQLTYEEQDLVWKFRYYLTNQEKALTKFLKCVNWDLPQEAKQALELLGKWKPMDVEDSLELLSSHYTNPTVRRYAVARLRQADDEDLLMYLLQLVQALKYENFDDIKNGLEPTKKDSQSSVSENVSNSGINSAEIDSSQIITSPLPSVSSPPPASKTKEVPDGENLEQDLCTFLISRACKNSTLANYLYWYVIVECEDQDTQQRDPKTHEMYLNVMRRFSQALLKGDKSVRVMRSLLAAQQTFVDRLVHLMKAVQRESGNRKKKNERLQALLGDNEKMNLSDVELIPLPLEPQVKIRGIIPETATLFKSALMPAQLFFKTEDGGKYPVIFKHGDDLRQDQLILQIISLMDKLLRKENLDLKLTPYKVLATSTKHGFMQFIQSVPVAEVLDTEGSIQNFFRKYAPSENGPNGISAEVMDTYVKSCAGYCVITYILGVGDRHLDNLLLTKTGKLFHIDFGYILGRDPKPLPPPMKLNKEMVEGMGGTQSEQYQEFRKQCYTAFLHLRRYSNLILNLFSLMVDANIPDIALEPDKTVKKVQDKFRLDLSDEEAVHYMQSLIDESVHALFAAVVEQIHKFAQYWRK
UniProt Q9UBF8: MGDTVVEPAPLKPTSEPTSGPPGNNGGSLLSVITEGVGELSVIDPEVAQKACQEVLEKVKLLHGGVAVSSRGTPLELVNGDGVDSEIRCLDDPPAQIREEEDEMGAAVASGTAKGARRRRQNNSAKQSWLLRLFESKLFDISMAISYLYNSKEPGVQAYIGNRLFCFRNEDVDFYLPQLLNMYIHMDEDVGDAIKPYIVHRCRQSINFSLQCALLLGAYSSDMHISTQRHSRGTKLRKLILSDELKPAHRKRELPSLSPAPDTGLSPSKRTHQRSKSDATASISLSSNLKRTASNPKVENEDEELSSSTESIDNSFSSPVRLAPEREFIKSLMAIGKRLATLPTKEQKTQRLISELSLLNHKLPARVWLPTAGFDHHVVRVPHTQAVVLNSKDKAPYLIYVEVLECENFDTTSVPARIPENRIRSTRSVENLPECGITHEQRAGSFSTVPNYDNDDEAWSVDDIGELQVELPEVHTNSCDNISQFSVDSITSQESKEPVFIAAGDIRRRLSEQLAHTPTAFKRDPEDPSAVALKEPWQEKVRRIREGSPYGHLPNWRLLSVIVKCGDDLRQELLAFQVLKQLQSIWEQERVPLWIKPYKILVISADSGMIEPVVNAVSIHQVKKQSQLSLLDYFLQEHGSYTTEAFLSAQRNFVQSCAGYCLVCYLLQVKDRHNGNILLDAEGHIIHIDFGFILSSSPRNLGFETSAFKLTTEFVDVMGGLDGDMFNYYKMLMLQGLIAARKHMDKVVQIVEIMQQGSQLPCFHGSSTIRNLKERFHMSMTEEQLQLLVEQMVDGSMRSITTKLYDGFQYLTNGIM

Target: Vps34 (Homo sapiens (Human), UniProt Q8NEB9)
Details: read-out: Assay C VPS34 IC50

Point of comparison: `Cc1ncc(-c2cc(-c3cc(S(=O)(=O)NCC(C)(C)CO)ccc3C)cnc2N)o1` [Example 104.2, 3-(6-amino-5-(2-methyloxazol-5-yl)pyridin-3-yl)-N-(3-hydroxy-2,2-dimethylpropyl)-4-methylbenzenesulfon-amide], IC50 3.3 µM. Against it:
- Cc1noc(-c2cc(-c3cc(S(=O)(=O)N4CC[C@H](O)C4)ccc3C)cnc2N)n1 [Example 37.32, (S)-1-((3-(6-Amino-5-(3-methyl-1,2,4-oxadiazol-5-yl)pyridin-3-yl)-4-methylphenyl)sulfonyl)pyrrolidin-3-ol hydrochloride] — higher, > 10 µM
- Cc1noc(-c2cc(-c3cc(S(=O)(=O)NC4CCN(C(C)C)CC4)ccc3C)cnc2N)n1 [Example 37.34, 3-(6-Amino-5-(3-methyl-1,2,4-oxadiazol-5-yl)pyridin-3-yl)-N-(1-isopropylpiperidin-4-yl)-4-methylbenzenesulfonamide] — higher, > 10 µM
- Cc1noc(-c2cc(-c3cc(S(=O)(=O)NCC(C)(F)F)ccc3C)cnc2N)n1 [Example 37.38, 3-(6-Amino-5-(3-methyl-1,2,4-oxadiazol-5-yl)pyridin-3-yl)-N-(2,2-difluoropropyl)-4-methylbenzenesulfonamide] — higher, > 10 µM
- Cc1ccc(S(=O)(=O)NCC(C)(C)O)cc1-c1cnc(N)c(-c2cc(C(=O)N3CCOCC3)no2)c1 [Example 42, 3-(6-Amino-5-(3-(morpholine-4-carbonyl)isoxazol-5-yl)pyridin-3-yl)-N-(2-hydroxy-2-methylpropyl)-4-methylbenzenesulfonamide] — higher, > 10 µM
- CONS(=O)(=O)c1ccc(C)c(-c2cnc(N)c(-c3nc(C)no3)c2)c1 [Example 46, 3-(6-Amino-5-(3-methyl-1,2,4-oxadiazol-5-yl)pyridin-3-yl)-N-methoxy-4-methylbenzenesulfonamide] — higher, > 10 µM
- Cc1noc(-c2cc(-c3cc(S(=O)(=O)NCC4CCCO4)ccc3C)cnc2N)n1 (centres unmarked) [Example 57, 3-(6-Amino-5-(3-methyl-1,2,4-oxadiazol-5-yl)pyridin-3-yl)-4-methyl-N-((tetrahydrofuran-2-yl)methyl)benzenesulfonamide] — higher, > 10 µM
- Cc1ccc(S(=O)(=O)NCC(C)(C)O)cc1-c1cnc(N)c(-c2ccn(C)c2)c1 [Example 58, 3-(6-Amino-5-(1-methyl-1H-pyrrol-3-yl)pyridin-3-yl)-N-(2-hydroxy-2-methylpropyl)-4-methylbenzenesulfonamide hydrochloride] — higher, > 10 µM
- Cc1ccc(S(=O)(=O)NCC(C)(C)O)cc1-c1cnc(N)c(-c2cnoc2C)c1 [Example 62, 3-(6-Amino-5-(5-methylisoxazol-4-yl)pyridin-3-yl)-N-(2-hydroxy-2-methylpropyl)-4-methylbenzenesulfonamide] — higher, > 10 µM
- Cc1ccc(S(=O)(=O)NCC(C)(C)O)cc1-c1cnc(N)c(-c2nc(C(F)F)no2)c1 [Example 71, 3-(6-Amino-5-(3-(difluoromethyl)-1,2,4-oxadiazol-5-yl)pyridin-3-yl)-N-(2-hydroxy-2-methylpropyl)-4-methylbenzenesulfonamide hydrochloride] — higher, > 10 µM
- Cc1ncc(-c2cc(-c3cc(S(=O)(=O)N[C@H]4CC[C@H](O)CC4)ccc3C)cnc2N)o1 [Example 98, 3-(6-amino-5-(2-methyloxazol-5-yl)pyridin-3-yl)-N-((1r,4r)-4-hydroxycyclohexyl)-4-methylbenzenesulfonamide hydrochloride] — within 1.5-fold, 2.5 µM
- Cc1ncc(-c2cc(-c3cc(S(=O)(=O)NCC(F)(F)F)ccc3C)cnc2N)o1 [Example 104.9, 3-(6-amino-5-(2-methyloxazol-5-yl)pyridin-3-yl)-4-methyl-N-(2,2,2-trifluoroethyl)benzene-sulfonamide] — 2.1-fold lower, 1.6 µM
- Cc1ncc(-c2cc(-c3cc(S(=O)(=O)NCC4CC4)ccc3C)cnc2N)o1 [Example 104.12, 3-(6-amino-5-(2-methyloxazol-5-yl)pyridin-3-yl)-N-(cyclopropylmethyl)-4-methylbenzenesulfon-amide] — 2.4-fold lower, 1.4 µM

Target: PI 4-kinase beta (Homo sapiens (Human), UniProt Q9UBF8)
Details: read-out: Assay D PI4Kβ IC50

For `Cc1ncc(-c2cc(-c3cc(S(=O)(=O)NCC(F)(F)F)ccc3C)cnc2N)o1` [Example 104.9, 3-(6-amino-5-(2-methyloxazol-5-yl)pyridin-3-yl)-4-methyl-N-(2,2,2-trifluoroethyl)benzene-sulfonamide], the IC50 was 1200 nM.
